The chains behind the UniProt entries cited, without tags or fusion partners. Where a name states a change or a piece, a line headed by the entry shows the natural chain unless it says otherwise.
UniProt Q8TCC7: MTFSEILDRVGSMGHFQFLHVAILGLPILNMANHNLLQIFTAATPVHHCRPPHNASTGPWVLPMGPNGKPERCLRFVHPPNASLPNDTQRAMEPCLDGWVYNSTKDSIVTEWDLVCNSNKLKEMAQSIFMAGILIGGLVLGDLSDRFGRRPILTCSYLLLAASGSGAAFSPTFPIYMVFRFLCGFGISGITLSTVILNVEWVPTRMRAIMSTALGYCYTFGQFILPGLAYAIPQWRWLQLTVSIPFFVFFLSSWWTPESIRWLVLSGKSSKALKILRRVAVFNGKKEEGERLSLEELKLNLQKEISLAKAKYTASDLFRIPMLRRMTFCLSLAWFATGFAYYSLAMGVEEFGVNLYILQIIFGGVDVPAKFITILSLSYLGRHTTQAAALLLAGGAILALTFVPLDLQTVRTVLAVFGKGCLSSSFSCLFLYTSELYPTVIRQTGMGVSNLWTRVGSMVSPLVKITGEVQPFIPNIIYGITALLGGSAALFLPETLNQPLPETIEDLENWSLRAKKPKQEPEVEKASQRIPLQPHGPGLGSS

According to US20180147301A1, “SOLID ORAL COMPOSITION CONTAINING DYES” (COSMO TECHNOLOGIES LTD., priority 2016, published 2018):

Target: OAT3 (Homo sapiens, UniProt Q8TCC7)
Details: in vitro

substrate of membrane transport protein OAT3: possible substrate
SMILES: CN(C)c1ccc2nc3ccc(=[N+](C)C)cc-3sc2c1 [Methylene blue, Methylthioninium Chloride (Methylene Blue)]
